The assay addresses NET (Rattus norvegicus, UniProt Q9WTR4). Kind of assay: Inhibition of [3H]nisoxetine binding to NET. Particulars: read-out: Radioligand Kd.

By Kd is commonly meant a measure of binding affinity in units of concentration. Take [^3H]nisoxetine [reference compound]: the Kd worked out at 2.2 nM.

For the origin of these results see US8017791B2 (dated 2011).
